The record followed here is patent US6664231B1, “Anti-fungal peptides” (priority 1993, dated 2003).

Experiment [1] relates to Candida albicans SLU-2G amphotericin B-resistant strain. Briefly: Radial diffusion assay (Example 3), amphotericin B-resistant strain. The format is cell-based. As to conditions: FIG. 2B.
The subject of experiment [2] is polyene-resistant (ATCC 38247), 5-fluorocytosine-resistant (ATCC 44373), azole-resistant (ATCC 62342), ketoconazole-resistant (ATCC 64124) C. albicans. As to the kind of experiment: Fungicidal activity on commercially-available drug-resistant Candida strains. The format is cell-based, Candida albicans. As to conditions: ATCC 38247, 44373, 62342, 64124. As to the method:
Further experiments were performed to determine the anti-fungal activity of Domain III derived peptides on commercially-available strains of Candida considered resistant to other anti-fungal agents: polyene-resistant C. albicans (ATCC Accession No. 38247), 5-fluorocytosine-resistant C. albicans (ATCC No. 44373), azole-resistant C. albicans (ATCC No. 62342), and ketoconazole-resistant C. albicans (ATCC No. 64124).

Experiment [3] deals with C. albicans (SLU-1 strain). As to the kind of experiment: Survival of mice systemically infected with Candida albicans. The format is in vivo, mouse. As to conditions: 3-dose study. The procedure:
Groups of 15 male DBA/2J mice at age 6-8 weeks (Jackson Laboratory, Bar Harbor, Me.) were inoculated with 1.24×10^5 C. albicans (SLU-1 strain as described in Example 2) by intravenous injection into the tail vein. Cells were prepared for animal injection as follows. A single colony was selected and used to inoculate a 5 mL tube of Sabouraud dextrose broth. Incubation was at 30° C. with shaking to allow aeration for a period of 15-18 hours. Four mL of the overnight culture were added to 100 mL of fresh Sabouraud dextrose broth (1:25 dilution) and incubated for 4 hours. The 100 mL culture was pelleted at 1,500×g for 5 minutes. Cells were washed twice by adding 20 mL D-PBS, vortexing and re-centrifuging. Cells were collected in one tube and a sample is diluted 1:10 to be measured by OD570 (1 OD unit=3×10^7 CFU/mL). […] Colonies were counted the following day after overnight incubation at 37° C. […]
Immediately after fungal challenge, the mice were intravenously injected via the tail vein with a 0.1 mL volume of 10 mg/kg XMP.36, 5 mg/kg XMP.97, 10 mg/kg XMP.102, 1 mg/kg amphotericin B (Sigma, St. Louis, Mo.), or phosphate buffered saline (PBS) as a control. […] Mice were monitored twice daily for mortality until termination of the study at Day 28. […] Statistical significance was evaluated using the Lifetest Survival Curve analysis. […]

The test system of experiment [4] is Candida albicans. As to the kind of experiment: Radial diffusion assay, Candida species (Table 2). Format: cell-based. The following applies: higher effective concentration of agarose than Table 1.

Molecules are shown by their SMILES.

With `CC[C@H](C)[C@H](NC(=O)[C@H](CC(C)C)NC(=O)[C@H](Cc1c[nH]c2ccccc12)NC(=O)[C@H](CCCCN)NC(=O)[C@@H](NC(=O)[C@H](CCCCN)NC(=O)[C@H](CO)NC(=O)[C@@H](N)CCCCN)C(C)C)C(=O)N[C@@H](CCC(N)=O)C(=O)N[C@@H](CC(C)C)C(=O)N[C@@H](Cc1ccccc1)C(=O)N[C@@H](Cc1c[nH]cn1)C(=O)N[C@@H](CCCCN)C(=O)N[C@@H](CCCCN)C(N)=O` [XMP.97], the “pmol for a 30 mm^2 zone of inhibition against SLU-2G” value in experiment [1] amounted to 161 pmol. In experiment [2], the “Fungicidal activity on resistant strains” value is listed as “not reduced”. Besides, the “p compared to control (survival)” value in experiment [3] (1.24×10^5 C. albicans, FIG. 4, Lifetest Survival Curve analysis) was less than 0.05. Moreover, in experiment [4], the “Anti-fungal activity: pmol/30 mm^2 zone, Candida albicans” value (“Anti-fungal activity: pmol/30 mm^2 zone” below) was 2,019 pmol/30 mm^2 zone.
`CC[C@H](C)[C@H](NC(=O)[C@H](CC(C)C)NC(=O)[C@H](Cc1ccccc1)NC(=O)CNC(=O)[C@@H](NC(=O)[C@H](CCCCN)NC(=O)[C@H](CO)NC(=O)[C@@H](N)CCCCN)C(C)C)C(=O)N[C@@H](CCC(N)=O)C(=O)N[C@@H](CC(C)C)C(=O)N[C@@H](Cc1ccccc1)C(=O)N[C@@H](Cc1c[nH]cn1)C(=O)N[C@@H](CCCCN)C(=O)N[C@@H](CCCCN)C(N)=O` [XMP.127]: in experiment [1], the “pmol for a 30 mm^2 zone of inhibition against SLU-2G” value was 116 pmol. Moreover, in experiment [2], the “Fungicidal activity on resistant strains” value was “not reduced”. In experiment [3] (0.5×10^5 Candida cells, FIG. 5), the “p compared to control (survival)” value was less than 0.05. Further, the “Anti-fungal activity: pmol/30 mm^2 zone” value in experiment [4] was 2,144 pmol/30 mm^2 zone.
As for `CC[C@H](C)[C@H](NC(=O)[C@H](CC(C)C)NC(=O)[C@H](Cc1c[nH]c2ccccc12)NC(=O)[C@H](CCCCN)NC(=O)[C@@H](N)CCCCN)C(=O)N[C@@H](CCC(N)=O)C(=O)N[C@@H](CC(C)C)C(=O)N[C@@H](CCCCN)C(=O)N[C@@H](CCCCN)C(N)=O` [XMP.327], the “Anti-fungal activity: pmol/30 mm^2 zone” value in experiment [4] is reported as 5,108 pmol/30 mm^2 zone.
As for `CC[C@H](C)[C@H](NC(=O)[C@H](CC(C)C)NC(=O)[C@H](Cc1c[nH]c2ccccc12)NC(=O)[C@H](CCCCN)NC(=O)[C@H](CCCCN)NC(C)=O)C(=O)N[C@@H](CCC(N)=O)C(=O)N[C@@H](CC(C)C)C(=O)N[C@@H](CCCCN)C(=O)N[C@@H](CCCCN)C(N)=O` [XMP.331], the “Anti-fungal activity: pmol/30 mm^2 zone” value in experiment [4] was “b (No detectable activity up to 5 μg/well)”.
